According to patent publication US20220062371A1, “LIGAND-DRUG-CONJUGATES AS SUBSTRATES FOR SELECTIVE CLEAVAGE BY THE EXOPEPTIDASE ACTIVITY OF CATHEPSIN B” (DEBIOPHARM RESEARCH & MANUFACTURING S.A., priority 2017, published 2022):
Like-named read-outs stand apart in the source and are kept apart here.

Experiments:
[1] = test system: SK-BR-3 (ErbB2-expressing) cells; assay: Cytotoxic activity, Alamar Blue assay; type: cell-based
Method: (§1) Log phase cultures of cell lines SK-OV-3 (ErbB2-expressing), SK-BR-3 (ErbB2-expressing), BT-474 (ErbB2-expressing) and MDA-MB-231 (ErbB2 negative) were collected and cells plated at seeding densities ranging from 1,500 to 12,000 cells/well in 96-well microtiter plates according to pre-determined conditions.
(§2) Assessment of cellular growth was done using Alamar Blue (available from Thermo Fisher Scientific) dye reduction assay. Alamar Blue was added to cells to constitute 10% culture volume. Cells were incubated for 4 to 6 hours, and dye reduction was measured by fluorescence on an EnSpire plate reader (Perkin Elmer). Background corrected fluorescence measurements were transformed in % scale by considering vehicle value as 100% activity (relative measurements). Next, relative measurements were analyzed using GraphPad Prism software to derive relative IC50. All experiments were done twice with 3 replicates per concentration. Error bars: SEM (n=3). Cytotoxicity of AF and AF-Arg on ErbB2-expressing SK-OV-3 and SK-BR-3 cells after 72 and 120 h of treatment. SK-OV-3 and SK-BR-3 cells were seeded the day before treatment in complete culture medium. After overnight resting, cells were treated with decreasing concentrations of test compounds in complete culture medium (AF: 10 μM-1 pM; AF-Arg: 10 μM-1 pM, log-dilution).
(§3) SK-OV-3, SK-BR-3 and MDA-MB-231 cells were seeded the day before treatment in complete culture medium.

[2] = test system: SK-OV-3 (ErbB2-expressing) cells; assay: Cytotoxic activity, Alamar Blue assay; type: cell-based
Method: as §1, §2, §3

[3] = test system: MDA-MB-231 (ErbB2 negative) cells; assay: Cytotoxic activity, Alamar Blue assay; type: cell-based; conditions: read-out: Relative IC50 at 96 h (day 4)
Method: as §1, §2, §3
BT-474 and MDA-MB-231 cells were seeded the day before treatment in complete culture medium.

[4] = test system: BT-474 (ErbB2-expressing) cells; assay: Cytotoxic activity, Alamar Blue assay; type: cell-based; conditions: ADC3 study, read-out: Relative IC50 at 96 h (day 4)
Method: as §1
as §2, with “log-dilution). […]” for “log-dilution).”

[5] = test system: SK-BR-3 (ErbB2-expressing) cells; assay: Binding affinity assay of ADC1 (flow cytometry); conditions: SK-BR-3 versus ErbB2-negative MDA-MB-231
Method: The binding affinity of antibody-drug conjugates according to the present invention was assessed as follows.
For SK-BR-3 cells, the concentration of both compounds ranged from 3 μg/mL to 3×10^−4 μg/mL ( 1/10 dilutions). For MDA-MB-231 cells, only the 3 μg/mL concentration was used for both compounds. Next, cells were incubated with a secondary goat anti-human antibody conjugated with Alexa 488 (BioLegend) and a live/dead stain prior analysis on a BD LSRII instrument. Error bars: SD (n=2). Raw data were analyzed in FlowJo (FlowJo).

[6] = SK-BR-3, run 1, 96 h, ADC1 study, read-out: Relative IC50 at 96 h (day 4)
[7] = SK-BR-3, run 2, 96 h, ADC1 study, read-out: Relative IC50 at 96 h (day 4)
[8] = SK-OV-3, run 1, 96 h, ADC1 study, read-out: Relative IC50 at 96 h (day 4)
[9] = SK-OV-3, run 2, 96 h, ADC1 study, read-out: Relative IC50 at 96 h (day 4)
[10] = MDA-MB-231, run 1, 96 h, ADC1 study
[11] = MDA-MB-231, run 2, 96 h, ADC1 study

Substance | IC50 [1, 6] [µM] | IC50 [1, 7] [µM] | IC50 [2, 8] [nM] | IC50 [2, 9] [nM] | IC50 [3, 10] [µM] | IC50 ([3]; MDA-MB-231, run 1, 96 h, ADC3 study) [µM] | IC50 [3, 11] [µM] | IC50 ([3]; MDA-MB-231, run 2, 96 h, ADC3 study) [µM] | IC50 ([4]; BT-474, run 1, 96 h) [µM] | IC50 ([4]; BT-474, run 2, 96 h) [µM] | affinity and specificity for ErbB2 expressing cells compared with trastuzumab [5] | IC50 ([1]; SK-BR-3, run 1, 96 h (FIG. 59b), read-out: IC50) [µM] | IC50 ([1]; SK-BR-3, run 2, 96 h (FIG. 59b), read-out: IC50) [µM] | IC50 ([2]; SK-OV-3, run 1, 96 h (FIG. 59a), read-out: IC50) [nM] | IC50 ([2]; SK-OV-3, run 2, 96 h (FIG. 59a), read-out: IC50) [nM]
trastuzumab: Herceptin (Trastuzumab) from Roche Pharma; humanized anti-HER2 (anti-ErbB2) monoclonal antibody [reference compound] | 0.76 | 15500 | ~793 | ~16100 | 0.00214 | 1.08 | 0.0109 | 0.686 | 0.000571 | 0.00456 |  |  |  |  | 
AF-Arg-Lys(PEG4-Mal-trastuzumab)-Phe-OH [ADC1] | 1.48e-05 | 4.33e-05 | 0.0344 | 0.0939 | 0.000128 |  | 0.0235 |  |  |  | same affinity and specificity | 1.48e-05 | 4.33e-05 | 0.0344 | 0.0939
